In patent US10238689B2, “Methods for combating bacterial infections by killing persister cells with mitomycin C and/or cisplatin” (THE PENN STATE RESEARCH FOUNDATION, priority 2015, dated 2019):

Test system: E. coli BW25113
Assay: Validation of persisters (three rounds of the persister assay)
Assay type: cell-based, Escherichia coli
Settings: LBCipro5 or LBAmp100 agar
Experimental: Validation of persisters. To validate that the persister cells are tolerant to antibiotics, not spontaneous resistant mutants, three rounds of the persister assay were performed. Overnight (16 h) cultures of E. coli BW25113 were diluted 1:1000 with fresh buffered LB and grown to a turbidity of ˜0.8 at 600 nm. A 1 mL culture was used for the drop assay, and a 5 mL culture was treated with ciprofloxacin (5 μg/mL) and ampicillin (100 μg/mL) for 3 h (125 mL flask, 250 rpm). After the first round of antibiotic treatment, a 1 mL sample was centrifuged at 10,000 rpm for 3 min, and the cells were resuspended in 1 mL of normal saline. A 100 μL of cell suspension was used for the drop assay on both LB and LB with 5 μg/mL of ciprofloxacin (LBCipro5) agar (for ciprofloxacin treated samples) or LB with 100 μg/mL of ampicillin (LBAmp100) agar (for ampicillin treated samples). For the second and third rounds, cell suspensions were diluted 1:100 with fresh buffered LB and regrown to a turbidity of ˜0.8 at 600 nm and used for antibiotic treatment followed by the drop assay.

O=C(O)c1cn(C2CC2)c2cc(N3CCNCC3)c(F)cc2c1=O [ciprofloxacin]
resistant colonies on antibiotic agar: no colonies were detected
